Series [1] can be described thus: Blood concentration (plasma pharmacokinetics after oral administration). The settings on record: guinea pigs, oral 10 mg/kg, mean (n = 2).
Series [2] relates to UGT. The series can be described thus: Metabolic stability test (UGT), rat microsomes. The settings on record: Rat liver or small intestine microsomes 0.5 mg protein/mL, compound 1 μM, UDPGA 2 mM, 5 minutes at 37° C.
Series [3] deals with UGT. The series can be described thus: Metabolic stability test (UGT), guinea pig microsomes. As to conditions: Guinea pig liver or small intestine microsomes 0.5 mg protein/mL, compound 1 μM, UDPGA 2 mM, 5 minutes at 37° C.
A further series in a line: Solubility test. As to conditions: JP2 solution (pH 6.8), 10 mM DMSO solution diluted 50-fold, incubation 16 to 24 hours.

In general, Cmax refers to the maximum level reached in the sampled fluid or tissue. As usually defined, the Tmax is the time from dosing to the highest level. Broadly, the Solubility is the concentration that dissolves in the medium under given conditions.

Converted amounts (≈) assume the structure as drawn.

Regarding `CC(C)C(=O)NCc1ccc(C(F)(F)F)c(-c2nc(-c3ccc(C(F)(F)F)cn3)cc(=O)[nH]2)c1F`, in series [1], the AUC0-t was found to be 4.7047 µM·h, the “AUC0-∞” value turned out to be 4.9954 µM·h, the peak concentration (Cmax) was 1260 nM and the “MRT0-∞” value is 7.3 h. In series [1], the Tmax is 0.5 h and the t1/2 was 6.0 h. This compound yielded a UGT metabolic stability with UGT [2] of 279 μL/min/mg protein. Further, the UGT metabolic stability with UGT [3] worked out at 230 μL/min/mg protein. In addition, in “Solubility test”, the Solubility turned out to be 5.3 µg/mL (≈ 10.5 µM).

Values taken from patent US12552769B2.
